Test results taken from publication PMC13376213, “Systematic discovery of motif-based interactions of the auxiliary domains of USP family deubiquitinases” (Nature Communications, 2026).

Biological target: T1, USP20 zf-UBP domain (Homo sapiens, UniProt Q9Y2K6)
T1 construct: USP20_UBP; Q9Y2K6; zf-UBP; 99; 6xHis-GST (N, cleaved yes); made in house; host or cells: Escherichia coli BL21-Gold (DE3)
Assay: FP-monitored affinity measurements, USP20 zf-UBP
Assay type: binding
Conditions: USP20_UBP; direct FP titration (saturation) of the FITC-labelled peptide

## CC(C)C[C@H](NC(=O)[C@H](CC(=O)O)NC(=O)[C@H](CO)NC(=O)[C@H](CCCNC(=N)N)NC(=O)[C@H](CCC(N)=O)NC(=O)[C@H](CCC(N)=O)NC(=O)[C@H](CCCCN)NC(=S)Nc1ccc2c(c1)C(=O)OC21c2ccc(O)cc2Oc2cc(O)ccc21)C(=O)N[C@@H](CC(N)=O)C(=O)NCC(=O)N1CCC[C@H]1C(=O)N[C@H](C(=O)N[C@@H](CC(=O)O)C(N)=O)C(C)C [FITC_APBA2]
  Kd: 2910 nM
